The test concerns the target Adrenergic receptor alpha-2 (Rattus norvegicus, UniProt P22086+P19328+P22909). Kind of test: Displacement of [3H]clonidine from Alpha-2 adrenergic receptor of rat brain membranes. In kind it is cell membranes, Membrane.

Sequences of proteins named here, by UniProt entry; tags and fusion partners are left off. A change or cut given only in a name is not applied to a line headed by its entry.
UniProt P22086: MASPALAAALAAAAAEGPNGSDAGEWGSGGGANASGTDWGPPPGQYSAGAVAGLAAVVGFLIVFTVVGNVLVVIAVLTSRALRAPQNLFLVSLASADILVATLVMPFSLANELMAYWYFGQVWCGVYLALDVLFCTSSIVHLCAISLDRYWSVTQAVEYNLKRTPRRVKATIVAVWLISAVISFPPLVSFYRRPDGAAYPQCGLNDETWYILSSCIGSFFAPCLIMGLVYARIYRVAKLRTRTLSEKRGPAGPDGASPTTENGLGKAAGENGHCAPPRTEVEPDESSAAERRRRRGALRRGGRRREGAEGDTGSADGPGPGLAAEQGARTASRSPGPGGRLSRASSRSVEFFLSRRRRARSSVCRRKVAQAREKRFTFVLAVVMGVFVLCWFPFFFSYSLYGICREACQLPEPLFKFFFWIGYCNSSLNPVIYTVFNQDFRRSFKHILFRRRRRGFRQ
UniProt P19328: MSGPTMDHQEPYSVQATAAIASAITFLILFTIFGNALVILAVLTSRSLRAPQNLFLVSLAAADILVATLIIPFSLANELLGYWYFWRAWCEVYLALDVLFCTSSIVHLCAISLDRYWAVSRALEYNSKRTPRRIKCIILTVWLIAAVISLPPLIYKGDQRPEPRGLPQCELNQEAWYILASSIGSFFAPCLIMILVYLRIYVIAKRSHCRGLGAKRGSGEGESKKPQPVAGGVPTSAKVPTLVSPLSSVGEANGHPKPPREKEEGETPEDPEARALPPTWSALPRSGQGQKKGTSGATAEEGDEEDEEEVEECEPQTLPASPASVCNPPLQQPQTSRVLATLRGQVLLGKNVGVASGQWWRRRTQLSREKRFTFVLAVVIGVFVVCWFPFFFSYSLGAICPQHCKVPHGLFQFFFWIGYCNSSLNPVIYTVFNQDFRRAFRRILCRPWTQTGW
UniProt P22909: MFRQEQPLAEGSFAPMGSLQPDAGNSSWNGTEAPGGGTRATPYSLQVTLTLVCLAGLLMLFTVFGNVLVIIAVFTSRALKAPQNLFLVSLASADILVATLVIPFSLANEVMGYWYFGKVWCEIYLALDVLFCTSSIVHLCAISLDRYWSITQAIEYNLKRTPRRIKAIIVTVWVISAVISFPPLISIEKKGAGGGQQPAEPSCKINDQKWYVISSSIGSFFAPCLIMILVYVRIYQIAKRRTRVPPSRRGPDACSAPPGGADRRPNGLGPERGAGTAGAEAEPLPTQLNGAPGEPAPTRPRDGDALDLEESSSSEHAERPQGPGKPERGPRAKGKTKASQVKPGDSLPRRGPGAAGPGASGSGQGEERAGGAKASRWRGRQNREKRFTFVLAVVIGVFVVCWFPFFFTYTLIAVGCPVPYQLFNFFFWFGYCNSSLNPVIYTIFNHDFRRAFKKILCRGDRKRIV

For `c1ccc2c(CC3=NCCN3)cccc2c1` [NAPHAZOLINE], the Ki was determined as 5.7 nM.
